Measured values published in PubChem BioAssay.
The entries are a selection whose mix differs from that of the whole data set. The source made the active and inactive calls. Unless noted, no stated cut-off is given here; in the data, active means response below about 74% or above about 130%; inactive means in between.

Protein sequences, listed by entry. Tags and fused reporters are not part of them.
UniProt P09471, whole entry: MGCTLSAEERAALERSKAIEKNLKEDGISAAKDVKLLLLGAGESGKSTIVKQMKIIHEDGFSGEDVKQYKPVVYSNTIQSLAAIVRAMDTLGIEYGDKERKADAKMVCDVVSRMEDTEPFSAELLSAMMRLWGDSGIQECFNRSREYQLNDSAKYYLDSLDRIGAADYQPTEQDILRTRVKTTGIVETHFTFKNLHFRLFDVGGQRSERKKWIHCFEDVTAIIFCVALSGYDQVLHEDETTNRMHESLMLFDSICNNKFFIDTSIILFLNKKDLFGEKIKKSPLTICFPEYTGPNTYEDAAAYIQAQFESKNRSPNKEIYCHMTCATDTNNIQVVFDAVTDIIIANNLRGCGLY
UniProt O15492, whole entry, looked up: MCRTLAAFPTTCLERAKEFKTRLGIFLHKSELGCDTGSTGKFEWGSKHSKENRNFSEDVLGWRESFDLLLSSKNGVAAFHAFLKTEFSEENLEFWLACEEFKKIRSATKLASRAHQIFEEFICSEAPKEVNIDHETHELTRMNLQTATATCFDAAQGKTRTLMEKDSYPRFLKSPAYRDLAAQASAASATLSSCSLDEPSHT
UniProt P49795, whole entry, looked up: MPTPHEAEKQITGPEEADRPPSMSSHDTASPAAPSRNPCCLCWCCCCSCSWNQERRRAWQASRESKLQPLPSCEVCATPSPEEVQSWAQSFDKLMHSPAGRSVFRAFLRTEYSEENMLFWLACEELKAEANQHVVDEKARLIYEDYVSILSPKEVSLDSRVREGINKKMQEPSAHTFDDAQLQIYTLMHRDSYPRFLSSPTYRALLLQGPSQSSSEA

What was measured:
[1] = disruption of biotin probe capture by avidin, counter-screen for RGS protein interaction modulators, biochemical, flow cytometry, bead-based (AID 1783;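 active means inhibition above 50%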;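 further: median green fluorescence of gated singlet beads compared with DMSO control wells; 0% = DMSO wells and 100% = complete loss of bead fluorescence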); conditions: streptavidin beads, fluorescein-biotin binding, at 10 µM, active compounds read high
[2] = target: Guanine nucleotide-binding protein G(o) subunit alpha (Homo sapiens) (UniProt P09471); assay: RGS8-Galphao binding modulators, confirmation, biochemical, multiplexed bead flow cytometry, single concentration (AID 1836; in the data active means binding response below about 72% or above about 130%; inactive means in between;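 further: Galphao activated as GDP AlF4 complex before binding bead RGS8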); conditions: bead-based flow cytometry RGS8-Galphao binding, fluorescence; at 10 µM; actives lie on both sides
[3] = target: Guanine nucleotide-binding protein G(o) subunit alpha (Homo sapiens) (UniProt P09471); assay: RGS7-Galphao binding modulators, confirmation, biochemical, multiplexed bead flow cytometry, single concentration (AID 1837; in the data active means response below about 75% or above about 130%; inactive means in between;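 further: fluorescent Galphao activated with GDP and aluminum fluoride binding bead-coupled RGS7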); conditions: bead-based flow cytometry RGS7-Galphao binding; at 10 µM; actives lie on both sides
[4] = target: Regulator of G-protein signaling 16 (Homo sapiens) + Guanine nucleotide-binding protein G(o) subunit alpha (Homo sapiens) (UniProt O15492+P09471); assay: modulators of RGS16-Galphao protein binding, confirmation, biochemical, single concentration, multiplexed bead flow cytometry (AID 1838); conditions: bead-based flow cytometry, at 10 µM, actives lie on both sides;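 further: Galphao activated as the GDP aluminium fluoride complex binding bead-coupled RGS16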
[5] = target: Guanine nucleotide-binding protein G(o) subunit alpha (Homo sapiens) (UniProt P09471); assay: modulators of RGS4-Galphao protein binding, confirmation, biochemical, single concentration, multiplexed bead flow cytometry (AID 1840; in the data active means binding response below about 74% or above about 130%; inactive means in between); conditions: at 10 µM, actives lie on both sides
[6] = target: Guanine nucleotide-binding protein G(o) subunit alpha (Homo sapiens) + Regulator of G-protein signaling 19 (Homo sapiens) (UniProt P09471+P49795); assay: regulators of RGS19-Galphao binding, confirmation, biochemical, single point, multiplexed bead flow cytometry (AID 1841; in the data active means response below about 50% or above about 160%; inactive means in between;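 further: 100% = no compound control and 0% = blank background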); conditions: bead-based flow cytometry RGS19-Galphao binding; at 10 µM; actives lie on both sides

O=C(NCC1(N2CCOCC2)CCCCC1)c1cc2ccccc2o1
inactive: inhibition [1] -1.6% | binding response (% of control) [2] 103% | response (percent of control binding) [3] 99% | response (% of control binding) [4] 106% | binding response (% of control) [5] 100% | response (percent of control binding) [6] 109%
